Among the data in ChEMBL document CHEMBL4145661, “H2O2/Peroxynitrite-Activated Hydroxamic Acid HDAC Inhibitor Prodrugs Show Antileukemic Activities against AML Cells” (ACS Med Chem Lett, 2018) are fold change (FC) and Activity values, retold here.

Amino acid sequences for entries named in this document (tags omitted). A change or cut given only in a name is not applied to a line headed by its entry.
UniProt O15379: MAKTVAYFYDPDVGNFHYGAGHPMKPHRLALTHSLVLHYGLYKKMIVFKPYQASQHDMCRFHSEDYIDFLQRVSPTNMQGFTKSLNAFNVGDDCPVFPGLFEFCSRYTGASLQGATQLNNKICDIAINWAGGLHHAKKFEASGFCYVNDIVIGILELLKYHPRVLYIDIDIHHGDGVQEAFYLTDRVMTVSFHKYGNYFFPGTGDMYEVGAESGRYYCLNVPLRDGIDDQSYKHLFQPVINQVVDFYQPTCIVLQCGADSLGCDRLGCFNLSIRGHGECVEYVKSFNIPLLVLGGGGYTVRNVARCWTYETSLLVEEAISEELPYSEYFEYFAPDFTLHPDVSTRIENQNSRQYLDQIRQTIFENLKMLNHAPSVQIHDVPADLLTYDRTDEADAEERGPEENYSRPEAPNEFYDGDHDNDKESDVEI
UniProt Q9UBN7: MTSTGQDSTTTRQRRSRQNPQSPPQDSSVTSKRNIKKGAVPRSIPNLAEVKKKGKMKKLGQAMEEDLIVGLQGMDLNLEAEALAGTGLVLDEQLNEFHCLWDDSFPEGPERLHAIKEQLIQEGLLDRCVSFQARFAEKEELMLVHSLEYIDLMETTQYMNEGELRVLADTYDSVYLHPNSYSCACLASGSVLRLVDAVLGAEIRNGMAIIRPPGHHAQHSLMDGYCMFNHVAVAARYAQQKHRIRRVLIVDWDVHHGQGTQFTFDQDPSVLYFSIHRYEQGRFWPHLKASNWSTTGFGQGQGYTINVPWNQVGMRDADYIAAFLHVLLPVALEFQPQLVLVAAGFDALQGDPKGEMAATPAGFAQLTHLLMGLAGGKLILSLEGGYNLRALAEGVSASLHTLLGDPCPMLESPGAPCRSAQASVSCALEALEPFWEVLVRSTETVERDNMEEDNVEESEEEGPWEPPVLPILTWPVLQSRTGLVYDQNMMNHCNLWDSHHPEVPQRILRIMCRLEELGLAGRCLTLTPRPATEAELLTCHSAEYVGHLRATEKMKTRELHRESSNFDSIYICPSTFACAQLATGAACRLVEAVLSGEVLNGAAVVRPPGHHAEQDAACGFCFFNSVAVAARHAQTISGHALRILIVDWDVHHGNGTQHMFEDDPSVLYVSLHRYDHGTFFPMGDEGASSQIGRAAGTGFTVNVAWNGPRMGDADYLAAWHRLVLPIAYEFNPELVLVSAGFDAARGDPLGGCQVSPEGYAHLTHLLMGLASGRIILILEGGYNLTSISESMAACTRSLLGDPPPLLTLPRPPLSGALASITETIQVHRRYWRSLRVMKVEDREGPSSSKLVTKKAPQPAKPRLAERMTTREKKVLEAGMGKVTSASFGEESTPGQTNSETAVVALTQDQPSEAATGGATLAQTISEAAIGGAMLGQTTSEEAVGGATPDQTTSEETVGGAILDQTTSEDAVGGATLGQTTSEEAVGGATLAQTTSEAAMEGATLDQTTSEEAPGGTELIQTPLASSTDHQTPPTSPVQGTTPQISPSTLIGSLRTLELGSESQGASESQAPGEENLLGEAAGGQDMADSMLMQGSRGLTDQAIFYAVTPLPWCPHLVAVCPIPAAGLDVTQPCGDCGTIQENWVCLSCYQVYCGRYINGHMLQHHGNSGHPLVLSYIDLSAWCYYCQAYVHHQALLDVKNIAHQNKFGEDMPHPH
UniProt Q92769: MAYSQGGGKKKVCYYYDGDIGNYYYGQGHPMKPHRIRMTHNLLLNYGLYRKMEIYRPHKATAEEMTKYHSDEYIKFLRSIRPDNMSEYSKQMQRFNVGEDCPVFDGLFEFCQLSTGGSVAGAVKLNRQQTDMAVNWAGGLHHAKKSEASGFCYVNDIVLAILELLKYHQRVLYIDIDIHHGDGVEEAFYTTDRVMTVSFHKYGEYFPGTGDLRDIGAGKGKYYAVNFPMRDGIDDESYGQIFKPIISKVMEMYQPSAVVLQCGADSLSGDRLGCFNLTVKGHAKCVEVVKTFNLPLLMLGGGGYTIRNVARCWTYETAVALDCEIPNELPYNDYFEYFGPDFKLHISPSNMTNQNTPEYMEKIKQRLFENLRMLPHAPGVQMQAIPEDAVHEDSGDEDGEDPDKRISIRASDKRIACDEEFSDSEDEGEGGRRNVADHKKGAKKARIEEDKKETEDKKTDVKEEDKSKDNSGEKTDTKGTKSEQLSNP
UniProt Q8WUI4: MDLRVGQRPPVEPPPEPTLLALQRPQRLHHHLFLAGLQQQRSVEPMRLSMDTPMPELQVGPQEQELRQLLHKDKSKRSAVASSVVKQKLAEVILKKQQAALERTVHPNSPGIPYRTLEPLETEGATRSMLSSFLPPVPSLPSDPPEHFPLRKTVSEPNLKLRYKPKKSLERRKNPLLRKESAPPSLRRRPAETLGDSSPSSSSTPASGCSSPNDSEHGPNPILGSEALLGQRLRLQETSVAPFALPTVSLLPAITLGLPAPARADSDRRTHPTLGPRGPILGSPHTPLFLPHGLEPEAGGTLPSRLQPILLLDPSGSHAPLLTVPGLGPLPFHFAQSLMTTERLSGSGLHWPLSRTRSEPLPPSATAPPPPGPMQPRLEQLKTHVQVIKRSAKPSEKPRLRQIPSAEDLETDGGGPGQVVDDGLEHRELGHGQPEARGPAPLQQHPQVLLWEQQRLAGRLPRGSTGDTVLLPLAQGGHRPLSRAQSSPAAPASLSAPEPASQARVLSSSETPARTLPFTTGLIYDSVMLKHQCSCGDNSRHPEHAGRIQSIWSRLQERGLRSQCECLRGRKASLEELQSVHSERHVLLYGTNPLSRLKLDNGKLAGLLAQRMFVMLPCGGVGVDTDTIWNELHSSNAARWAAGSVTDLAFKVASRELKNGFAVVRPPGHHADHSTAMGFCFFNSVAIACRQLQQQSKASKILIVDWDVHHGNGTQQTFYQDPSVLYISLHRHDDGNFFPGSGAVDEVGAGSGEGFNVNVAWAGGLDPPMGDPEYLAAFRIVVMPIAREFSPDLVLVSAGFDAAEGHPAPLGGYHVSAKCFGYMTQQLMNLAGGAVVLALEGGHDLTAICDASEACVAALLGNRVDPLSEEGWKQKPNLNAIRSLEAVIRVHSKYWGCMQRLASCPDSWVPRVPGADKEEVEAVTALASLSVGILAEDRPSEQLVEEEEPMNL
UniProt Q9BY41: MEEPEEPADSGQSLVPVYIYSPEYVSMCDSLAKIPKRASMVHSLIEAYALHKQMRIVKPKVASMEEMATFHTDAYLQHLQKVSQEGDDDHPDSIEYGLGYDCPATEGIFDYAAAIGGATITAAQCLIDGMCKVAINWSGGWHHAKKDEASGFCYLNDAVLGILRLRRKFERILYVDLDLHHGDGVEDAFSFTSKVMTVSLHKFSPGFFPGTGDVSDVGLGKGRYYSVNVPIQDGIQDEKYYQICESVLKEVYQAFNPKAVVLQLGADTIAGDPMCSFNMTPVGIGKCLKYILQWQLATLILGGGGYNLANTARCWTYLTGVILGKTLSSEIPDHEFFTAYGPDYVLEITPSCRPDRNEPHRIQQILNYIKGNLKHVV
UniProt Q96DB2: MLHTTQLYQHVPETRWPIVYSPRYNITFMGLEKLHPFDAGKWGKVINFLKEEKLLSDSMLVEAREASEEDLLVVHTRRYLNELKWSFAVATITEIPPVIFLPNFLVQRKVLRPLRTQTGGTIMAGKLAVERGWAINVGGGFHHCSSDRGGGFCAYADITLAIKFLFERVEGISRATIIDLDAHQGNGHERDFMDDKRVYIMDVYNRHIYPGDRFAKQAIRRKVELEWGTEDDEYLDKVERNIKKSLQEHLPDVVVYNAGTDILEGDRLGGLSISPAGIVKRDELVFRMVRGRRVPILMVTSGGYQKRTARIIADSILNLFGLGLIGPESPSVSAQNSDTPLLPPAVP
UniProt P56524: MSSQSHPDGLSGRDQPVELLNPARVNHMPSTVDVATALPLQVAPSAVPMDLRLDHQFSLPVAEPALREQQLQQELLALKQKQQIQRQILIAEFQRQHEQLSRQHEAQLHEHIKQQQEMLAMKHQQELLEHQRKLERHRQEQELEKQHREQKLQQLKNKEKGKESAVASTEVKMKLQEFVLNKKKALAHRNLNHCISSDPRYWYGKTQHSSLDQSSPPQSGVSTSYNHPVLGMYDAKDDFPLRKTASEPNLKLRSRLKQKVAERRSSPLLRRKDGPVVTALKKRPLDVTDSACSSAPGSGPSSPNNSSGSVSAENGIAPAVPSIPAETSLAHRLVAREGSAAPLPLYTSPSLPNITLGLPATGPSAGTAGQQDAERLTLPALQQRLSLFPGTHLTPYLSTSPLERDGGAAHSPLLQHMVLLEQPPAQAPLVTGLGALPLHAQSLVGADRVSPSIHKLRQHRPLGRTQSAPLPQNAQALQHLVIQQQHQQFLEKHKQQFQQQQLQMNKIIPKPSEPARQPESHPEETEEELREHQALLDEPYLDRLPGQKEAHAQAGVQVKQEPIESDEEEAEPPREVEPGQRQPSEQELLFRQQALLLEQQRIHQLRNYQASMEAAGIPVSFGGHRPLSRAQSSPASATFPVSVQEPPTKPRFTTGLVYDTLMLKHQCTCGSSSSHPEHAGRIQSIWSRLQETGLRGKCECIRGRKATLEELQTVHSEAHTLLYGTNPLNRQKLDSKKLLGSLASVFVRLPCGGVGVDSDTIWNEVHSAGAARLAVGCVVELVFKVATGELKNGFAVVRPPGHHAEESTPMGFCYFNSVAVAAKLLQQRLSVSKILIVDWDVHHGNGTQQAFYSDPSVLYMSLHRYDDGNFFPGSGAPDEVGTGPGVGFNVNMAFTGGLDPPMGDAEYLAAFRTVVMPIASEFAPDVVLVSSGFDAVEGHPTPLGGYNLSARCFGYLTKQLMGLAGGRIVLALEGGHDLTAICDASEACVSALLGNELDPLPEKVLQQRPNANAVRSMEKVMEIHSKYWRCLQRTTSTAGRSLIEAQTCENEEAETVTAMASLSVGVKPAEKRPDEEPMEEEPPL
UniProt Q9UKV0: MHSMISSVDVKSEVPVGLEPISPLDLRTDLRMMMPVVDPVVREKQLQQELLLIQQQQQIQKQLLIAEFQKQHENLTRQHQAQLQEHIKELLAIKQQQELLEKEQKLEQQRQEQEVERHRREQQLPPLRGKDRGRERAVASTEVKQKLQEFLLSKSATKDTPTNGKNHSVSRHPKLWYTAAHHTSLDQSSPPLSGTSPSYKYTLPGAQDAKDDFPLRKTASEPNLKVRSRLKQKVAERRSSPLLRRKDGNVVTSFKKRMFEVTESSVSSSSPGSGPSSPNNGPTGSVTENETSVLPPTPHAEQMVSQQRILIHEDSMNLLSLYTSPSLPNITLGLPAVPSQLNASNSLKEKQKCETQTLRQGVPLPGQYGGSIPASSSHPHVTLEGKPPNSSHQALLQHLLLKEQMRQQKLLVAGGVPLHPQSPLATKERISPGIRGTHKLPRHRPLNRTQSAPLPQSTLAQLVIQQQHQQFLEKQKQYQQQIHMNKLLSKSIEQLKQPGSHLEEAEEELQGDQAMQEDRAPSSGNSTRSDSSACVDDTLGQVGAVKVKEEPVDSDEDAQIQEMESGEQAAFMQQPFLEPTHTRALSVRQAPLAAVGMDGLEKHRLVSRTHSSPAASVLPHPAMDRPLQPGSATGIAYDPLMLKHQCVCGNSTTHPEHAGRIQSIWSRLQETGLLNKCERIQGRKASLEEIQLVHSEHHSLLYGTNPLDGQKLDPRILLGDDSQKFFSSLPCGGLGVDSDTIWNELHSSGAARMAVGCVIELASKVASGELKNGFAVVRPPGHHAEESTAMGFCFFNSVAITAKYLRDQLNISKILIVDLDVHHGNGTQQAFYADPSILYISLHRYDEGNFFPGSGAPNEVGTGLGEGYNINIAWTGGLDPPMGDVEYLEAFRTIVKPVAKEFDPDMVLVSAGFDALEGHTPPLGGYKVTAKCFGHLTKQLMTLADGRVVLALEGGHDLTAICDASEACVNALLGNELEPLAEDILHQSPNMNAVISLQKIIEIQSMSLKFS
UniProt Q969S8: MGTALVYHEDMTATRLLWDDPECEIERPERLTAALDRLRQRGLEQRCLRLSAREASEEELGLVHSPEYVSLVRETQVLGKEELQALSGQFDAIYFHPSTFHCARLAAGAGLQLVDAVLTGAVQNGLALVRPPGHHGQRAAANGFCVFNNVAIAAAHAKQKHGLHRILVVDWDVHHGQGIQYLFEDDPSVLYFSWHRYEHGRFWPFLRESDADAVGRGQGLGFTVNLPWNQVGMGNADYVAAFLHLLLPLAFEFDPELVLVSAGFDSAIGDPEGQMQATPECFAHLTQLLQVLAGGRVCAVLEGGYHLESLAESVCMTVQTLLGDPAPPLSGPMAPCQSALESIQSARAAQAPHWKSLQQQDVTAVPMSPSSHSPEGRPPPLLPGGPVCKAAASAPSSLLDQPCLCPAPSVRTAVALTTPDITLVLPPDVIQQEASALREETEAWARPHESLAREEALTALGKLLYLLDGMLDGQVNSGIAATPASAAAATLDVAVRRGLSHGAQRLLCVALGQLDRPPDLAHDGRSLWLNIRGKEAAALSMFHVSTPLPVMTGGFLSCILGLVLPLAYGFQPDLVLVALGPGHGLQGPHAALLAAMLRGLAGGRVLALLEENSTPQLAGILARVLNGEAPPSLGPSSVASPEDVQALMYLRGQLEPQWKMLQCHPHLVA

Experiment [1] deals with T1, Histone deacetylase (Homo sapiens) (UniProt Q13547+O15379+Q9UBN7+Q92769+Q9UQL6+Q8WUI4+Q9BY41+Q96DB2+P56524+Q9UKV0+Q969S8). Description: Inhibition of HDAC in human MV4-11 cells assessed as ratio of acetylation of histone H4 to GAPDH protein level at 2.5 uM pretreated with SOD for 2 hrs followed by compound addition measured after 24 hrs by Western blot analysis relative to (4-(((8-oxo-8-(phenylamino)octanamido)oxy)methyl)phenyl)boronic acid alone. The class given is cell-based. On the technique in general: Immunoblotting shows a protein as a band on a membrane.

The subject of another experiment is U-937. Description: Cytotoxicity against human U937 cells assessed as reduction in cell viability after 72 hrs by MTT assay. The format is functional, cell-based. In general terms: Tetrazolium dyes change colour on reduction, which living cells bring about.
Experiment [2] deals with T1, Histone deacetylase (Homo sapiens). Kind of experiment: Inhibition of HDAC in human MV4-11 cells assessed as increase in acetylation of histone H4 at 1 uM after 6 hrs by Western blot analysis relative to SAHA. The class given is cell-based.
Experiment [3] shares this target. Description: Inhibition of HDAC in human MV4-11 cells assessed as increase in acetylation of histone H4 at 2.5 uM after 6 hrs by Western blot analysis relative to SAHA. The class given is cell-based.
Experiment [4] shares this target. Description: Inhibition of HDAC in human MV4-11 cells assessed as increase in acetylation of histone H4 at 5 uM after 6 hrs by Western blot analysis relative to SAHA. The format is cell-based.
Experiment [5] has the same target. Description: Inhibition of HDAC in human MV4-11 cells assessed as increase in acetylation of histone H4 at 10 uM after 6 hrs by Western blot analysis relative to SAHA. The format is cell-based.
For experiment [6] the target is unchanged. Kind of experiment: Inhibition of HDAC in human MV4-11 cells assessed as increase in acetylation of alpha-tubulin at 1 uM after 6 hrs by Western blot analysis relative to SAHA. The class given is cell-based.
For experiment [7] the target is unchanged. Kind of experiment: Inhibition of HDAC in human MV4-11 cells assessed as increase in acetylation of alpha-tubulin at 2.5 uM after 6 hrs by Western blot analysis relative to SAHA. The class given is cell-based.
Experiment [8] has the same target. Description: Inhibition of HDAC in human MV4-11 cells assessed as increase in acetylation of alpha-tubulin at 5 uM after 6 hrs by Western blot analysis relative to SAHA. The class given is cell-based.
Experiment [9] has the same target. Kind of experiment: Inhibition of HDAC in human MV4-11 cells assessed as increase in acetylation of alpha-tubulin at 10 uM after 6 hrs by Western blot analysis relative to SAHA. The format is cell-based.
Experiment [10] shares this target. Kind of experiment: Inhibition of HDAC in human MV4-11 cells assessed as ratio of acetylation of histone H4 to GAPDH protein level at 2.5 uM pretreated with BSO/LPS for 2 hrs followed by compound addition measured after 24 hrs by Western blot analysis relative to (4-(((8-oxo-8-(phenylamino)octanamido)oxy)methyl)phenyl)boronic acid alone. The class given is cell-based.

The target is the same in experiment [11]. Kind of experiment: Inhibition of HDAC in human MV4-11 cells assessed as ratio of acetylation of histone H4 to GAPDH protein level at 2.5 uM pretreated with catalase for 2 hrs followed by compound addition measured after 24 hrs by Western blot analysis relative to (4-(((8-oxo-8-(phenylamino)octanamido)oxy)methyl)phenyl)boronic acid alone. The class given is cell-based.

The target is the same in experiment [12]. Description: Inhibition of HDAC in human MV4-11 cells assessed as ratio of acetylation of alpha-tubulin to GAPDH protein level at 2.5 uM pretreated with BSO/LPS for 2 hrs followed by compound addition measured after 24 hrs by Western blot analysis relative to (4-(((8-oxo-8-(phenylamino)octanamido)oxy)methyl)phenyl)boronic acid alone. The class given is cell-based.

The target is the same in experiment [13]. Kind of experiment: Inhibition of HDAC in human MV4-11 cells assessed as ratio of acetylation of alpha-tubulin to GAPDH protein level at 2.5 uM pretreated with catalase for 2 hrs followed by compound addition measured after 24 hrs by Western blot analysis relative to (4-(((8-oxo-8-(phenylamino)octanamido)oxy)methyl)phenyl)boronic acid alone. The format is cell-based.

Experiment [14] shares this target. Kind of experiment: Inhibition of HDAC in human MV4-11 cells assessed as ratio of acetylation of alpha-tubulin to GAPDH protein level at 2.5 uM pretreated with SOD for 2 hrs followed by compound addition measured after 24 hrs by Western blot analysis relative to (4-(((8-oxo-8-(phenylamino)octanamido)oxy)methyl)phenyl)boronic acid alone. The format is cell-based.

For the compound `O=C(CCCCCCC(=O)Nc1ccccc1)NOCc1ccc(B(O)O)cc1`, the fold change (FC) in [1] stood at 1.7; in experiment [2] it was 0.02; in experiment [3] it was 0.03; in [4], 0.09; in experiment [5] it was 0.27; in [6] it was 0.06. For the same compound, the fold change (FC) in experiment [7] turned out to be 0.17; in experiment [8] it was 0.35; in [9], 0.53; in experiment [10] it was 4.4; in experiment [11], 0.4; in [12] it was 1.4. Moreover, the fold change (FC) in [13] was determined as 0.3; in [14], 1.2. For the same compound, the Activity result with U-937 is “Dose-dependent effect”.

Regarding `COc1cc(/C=C/C(=O)N2CCC=CC2=O)cc(OC)c1OCCCCCCC(=O)NOCc1ccc(B(O)O)cc1`, in the experiment on U-937, the Activity result was “Dose-dependent effect”. The fold change (FC) was found to be 0.26 in experiment [2]; 0.56 in experiment [3]; 2.09 in experiment [4]; 2.15 in experiment [5]; 0.27 in [6]; 0.59 in experiment [7]. In addition, the fold change (FC) in [8] was 0.8; in experiment [9] it was 0.9.
